Measured values from ChEMBL document CHEMBL3580647, “Discovery of potent indenoisoquinoline topoisomerase I poisons lacking the 3-nitro toxicophore” (J Med Chem, 2015).

Assay: Growth inhibition of human NCI60 cells assessed as cell growth at 10 uM
Assay type: functional
Conditions: read-out: Activity
How it was run: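 NCI-60 single-dose screen at 10 μM across ~60 human cancer cell lines. Reported as growth percent relative to vehicle-treated control, averaged over all lines tested as a mean growth percent.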

SMILES: CN(C)CCCn1c2c(c3ccncc3c1=O)C(=O)c1ccccc1-2
- growth at 10 µM: -9.25%
